Where “and” joins values, the source holds several entries; their conditions need not be identical. Identical values can stand only once. The entries are a selection whose mix differs from that of the whole data set. Calls of active or inactive are those of the source. Calls follow the shape of the dose curve; as a rule, active = well fitted activation curve with a large enough effect; inconclusive = small, poorly fitted or top-dose-only effect, or another doubt; inactive = no such curve, though single readings can be large or run the other way.
% is scaled to controls: 0 for no effect and ±100 for the full control effect.

Chains of the proteins cited; added tags and fusions are not shown.
UniProt Q8WZA2, whole entry: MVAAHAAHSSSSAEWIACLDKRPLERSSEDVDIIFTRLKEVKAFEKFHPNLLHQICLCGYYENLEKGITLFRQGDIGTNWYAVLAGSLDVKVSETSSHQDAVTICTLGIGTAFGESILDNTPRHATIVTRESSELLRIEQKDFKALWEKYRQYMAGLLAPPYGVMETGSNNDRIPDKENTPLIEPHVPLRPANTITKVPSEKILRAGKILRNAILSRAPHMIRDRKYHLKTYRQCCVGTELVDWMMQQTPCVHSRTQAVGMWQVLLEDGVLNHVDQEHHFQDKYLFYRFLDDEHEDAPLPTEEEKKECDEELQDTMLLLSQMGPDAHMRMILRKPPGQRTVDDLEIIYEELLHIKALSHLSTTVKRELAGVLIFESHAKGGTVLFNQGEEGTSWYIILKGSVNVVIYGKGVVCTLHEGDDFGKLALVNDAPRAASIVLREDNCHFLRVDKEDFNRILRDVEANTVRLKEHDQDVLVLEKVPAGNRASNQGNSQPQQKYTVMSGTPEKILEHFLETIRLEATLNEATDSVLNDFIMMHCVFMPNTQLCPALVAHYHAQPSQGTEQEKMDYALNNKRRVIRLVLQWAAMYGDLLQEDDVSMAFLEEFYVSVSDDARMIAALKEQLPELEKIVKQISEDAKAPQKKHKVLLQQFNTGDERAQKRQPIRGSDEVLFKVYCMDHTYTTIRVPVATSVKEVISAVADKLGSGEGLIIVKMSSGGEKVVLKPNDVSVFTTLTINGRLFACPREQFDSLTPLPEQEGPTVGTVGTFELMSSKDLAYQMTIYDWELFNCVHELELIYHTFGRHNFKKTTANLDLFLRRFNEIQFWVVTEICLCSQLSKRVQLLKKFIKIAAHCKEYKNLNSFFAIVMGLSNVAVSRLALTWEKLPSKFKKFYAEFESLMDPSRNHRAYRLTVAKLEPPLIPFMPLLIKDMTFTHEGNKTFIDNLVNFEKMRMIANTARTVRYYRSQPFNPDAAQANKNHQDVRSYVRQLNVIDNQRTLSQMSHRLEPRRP

The target of this assay is Rap guanine nucleotide exchange factor 4 (Homo sapiens) (UniProt Q8WZA2). As to the kind of experiment: Validation qHTS for agonist of cAMP-regulated guanine nucleotide exchange factor 4 (EPAC2).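 Also: exchange makes BODIPY-GDP fluorescence drop when released from Rap1B; series mostly up to about 150 µM.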 Conditions: EPAC2 Rap1B BODIPY-GDP exchange, fluorescence; active compounds read high. An excerpt:
Principle Investigator: Xiaodong Cheng Ph.D.
The University of Texas Medical Branch, […], TX
In multi-cellular eukaryotic organisms, the effects of cAMP are transduced by two ubiquitously-expressed intracellular cAMP receptors, the classic protein kinase A/cAMP-dependent protein kinase (PKA/cAPK) and the more recently discovered exchange protein directly activated by cAMP/cAMP-regulated guanine nucleotide exchange factor (EPAC/cAMP-GEF). Both PKA and EPAC are ubiquitously expressed in all tissues, and an increase in intracellular cAMP levels will lead to the activation of both PKA and EPAC. Therefore, careful dissections of the individual role and relative contribution of EPAC and PKA within the overall cAMP signaling in various model systems are critical for further elucidating the mechanism of cAMP signaling. To date no EPAC-specific antagonists and agonist, as well as isoform-specific agonists have been reported, and developing EPAC-specific pharmacological probes to determine the physiological functions that EPAC play in the overall cAMP-mediated signaling remains a major challenge within the research field. Furthermore, identified regulators of EPAC may lead to new mechanism-based therapeutic strategies specifically targeting the EPAC / cAMP-signaling components as EPAC has been implicated to play important roles in major human pathological conditions such as diabetes, heart disease, and cancer.
This qHTS will be used to screen the Molecular Libraries Small Molecule Repository (MLSMR) as a concentration-titration series using the NCGC unique quantitative screening (qHTS) platform to find activators for EPAC1. In addition, this assay will also be used as a counterscreen for the EPAC2 qHTS. This fluorescent based assay is developed and validated for EPAC1 that measures exchange using EPAC effector Rap1 complex with BODIPY-GDP, a GDP analog with a tethered fluorophores. Activators are identified by monitoring the change in fluorescence signal as the exchanged free BODIPY-GDP has a reduced fluorescence compared to Rap1-bound BODIPY-GDP. Increase in signal (activation) is the desired outcome for the EPAC1 agonist while no activity in this assay is desired for the EPAC2 agonist counterscreen.
[1] de Rooij, J., Zwartkruis, F. J., Verheijen, M. H., Cool, R. H., Nijman, S. M., Wittinghofer, A., and Bos, J.L. (1998) Nature 396, 474-477.
Briefly, three uL of reagents (100 nM EPAC2, 250 nM RAP1B-BODIPY-GDP, 50 uM GDP) were dispensed into a 1536-well Greiner black solid-bottom medium binding assay plate. Controls and test compounds (23 nL) were transferred to the plate via a Kalypsys pin tool equipped with a 1536-pin array. The plates were centrifuged at 1,000 rpm for 15 seconds followed by 5 minute incubation at room temperature. The assay plates were read at 5 minute intervals for 30 minutes in the ViewLux plate reader using 480nm excitation and 540nm emission filters. The results were normalized to the agonist positive control of 6.5 mM cAMP.
Consider `OCCSCCO`, for which the activation was inactive: 10.1%.

`CC(C)OP(=O)(F)OC(C)C`: the activation was inactive: -3.49%.

As for `CCOP(=O)(CC)Oc1ccc([N+](=O)[O-])cc1` (stereo unspecified), the activation was inactive: -16%.

Take `Cc1cccc([N+](=O)[O-])c1[N+](=O)[O-]`: the activation was inactive: -17.5%.

As to `C/C1=C2N=C(/C=C3N=C(/C(C)=C4\[N-][C@@](C)([C@@H]5N=C1[C@](C)(CCC(=O)NC[C@@H](C)OP(=O)([O-])O[C@H]1[C@@H](O)[C@@H](n6cnc7cc(C)c(C)cc76)O[C@@H]1CO)[C@H]5CC(N)=O)[C@@](C)(CC(N)=O)[C@@H]4CCC(N)=O)[C@@](C)(CC(N)=O)[C@@H]\3CCC(N)=O)C(C)(C)[C@@H]/2CCC(N)=O.[C-]#N.[Co+3]`, the activation is inactive: 7.5%.

As for `CCN(CCCl)Cc1ccccc1C`, the activation is inactive: -14.2%.

On to `CC(C)N(CCCl)C(C)C`, for which the activation was inactive: 5.45%.

`O=[N+]([O-])c1cccc([N+](=O)[O-])c1`: the activation is inactive: 9.84% and inactive: -15.7%.

Turning to `O=[N+]([O-])OCC(CO[N+](=O)[O-])(CO[N+](=O)[O-])CO[N+](=O)[O-]`, the activation was inactive: 15%.

With `O=[N+]([O-])[O-].[NH4+]`, the activation was inactive: 4.93%.

As to `CN(C)CCS`, the activation was inactive: -13.6%.

The values above are taken from PubChem BioAssay AID1645887 (National Center for Advancing Translational Sciences (NCATS), 2021).
